# Target: T1, Ephrin type-B receptor 4 (Homo sapiens, UniProt P54760)
# T1 sequence (P54760 whole entry): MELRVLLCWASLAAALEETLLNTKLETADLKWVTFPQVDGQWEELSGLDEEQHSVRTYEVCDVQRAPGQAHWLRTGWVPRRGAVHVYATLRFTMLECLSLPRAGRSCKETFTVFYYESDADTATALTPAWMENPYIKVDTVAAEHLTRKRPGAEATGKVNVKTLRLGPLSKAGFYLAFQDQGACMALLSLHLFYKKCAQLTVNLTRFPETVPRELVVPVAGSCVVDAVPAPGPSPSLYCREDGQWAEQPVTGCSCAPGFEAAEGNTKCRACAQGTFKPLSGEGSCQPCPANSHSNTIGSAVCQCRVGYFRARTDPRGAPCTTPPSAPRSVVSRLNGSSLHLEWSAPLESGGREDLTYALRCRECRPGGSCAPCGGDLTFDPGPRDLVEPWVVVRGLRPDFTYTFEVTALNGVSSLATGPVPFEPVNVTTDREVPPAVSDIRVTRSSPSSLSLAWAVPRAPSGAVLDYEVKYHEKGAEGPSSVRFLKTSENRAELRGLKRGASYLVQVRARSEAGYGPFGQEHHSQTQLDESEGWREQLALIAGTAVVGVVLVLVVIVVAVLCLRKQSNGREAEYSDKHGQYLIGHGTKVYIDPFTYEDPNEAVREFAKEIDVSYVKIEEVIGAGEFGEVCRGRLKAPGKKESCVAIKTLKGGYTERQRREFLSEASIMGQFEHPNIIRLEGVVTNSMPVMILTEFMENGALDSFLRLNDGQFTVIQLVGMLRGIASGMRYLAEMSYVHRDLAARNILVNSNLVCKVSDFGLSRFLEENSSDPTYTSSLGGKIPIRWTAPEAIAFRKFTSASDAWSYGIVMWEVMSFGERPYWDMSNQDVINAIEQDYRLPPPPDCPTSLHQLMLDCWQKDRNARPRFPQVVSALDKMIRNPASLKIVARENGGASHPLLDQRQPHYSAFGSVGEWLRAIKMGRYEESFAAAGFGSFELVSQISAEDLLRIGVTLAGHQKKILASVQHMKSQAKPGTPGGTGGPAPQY
# Experiment: Inhibition of EphB4
row,IC50 [nM],SMILES
1,580,Clc1ccc2c(c1Nc1ccnc(Nc3cccc(N4CCOCC4)c3)n1)OCO2
2,40,NS(=O)(=O)c1cccc(Nc2nccc(Nc3c(Cl)ccc4c3OCO4)n2)c1

row,SMILES,IC50 [nM]
1,COc1cc(Nc2nccc(Nc3c(Cl)ccc4c3OCO4)n2)cc(OC)c1OC,240
